Measurements published in patent US20230137010A1, “LONG-ACTING APOMORPHINE FORMULATIONS AND INJECTORS FOR THERAPEUTIC DELIVERY OF THE SAME” (Scienture, Inc., priority 2020, published 2023).
Where a name gives a salt, the structure may show the parent alone.

Assay: Solubility of APO-HCL in organic solvents (O/W microencapsulation solvents and co-solvents for DCM)
Conditions: DCM/DMSO co-solvent systems with only 10-20% DMSO

SMILES: CN1CCc2cccc3c2[C@H]1Cc1ccc(O)c(O)c1-3 [APO-HCL, apomorphine hydrochloride hemihydrate]
- Solubility for preparation of microspheres with high apomorphine loading: insufficient
